Assay results: patent US6417210B1, “Treatment of dyskinesias and Parkinson's disease with riluzole and levodopa” (MOR-Research Applications Ltd., priority 1998, dated 2002)

System: patients suffering from advanced Parkinson's disease with severe levodopa-induced dyskinesias

Nc1nc2ccc(OC(F)(F)F)cc2s1 [Riluzole, 2-amino-6-trifluoromethoxy benzothiazole]
Reduction of mean daily waking hours spent in severe dyskinesias (during treatment versus before treatment, 0.01<p<0.05 paired t-test): about 30% | Decrease of mean daily waking hours spent with dyskinesias (during treatment versus before treatment, P<0.01 paired t-test): about 24% | Mean daily waking hours spent with dyskinesias (during treatment with riluzole up to 50 mg b.i.d., six patients, before treatment 6.92±3.67 hours, P<0.01 paired t-test): 5.26 ± 4.23 h | Mean daily waking hours spent in severe dyskinesias (during treatment with riluzole, before treatment 2.76±1.77 hours, 0.01<p<0.05 paired t-test): 1.94 ± 2.40 h | Attenuation of dyskinesias (result in words) (open-label, six patients): effective in attenuating the dyskinesias
